Laboratory results reported in patent US7064133B2, “Quinoline derivatives process of synthesis and medicaments containing these derivatives” (Bioalliance Pharma, priority 2001, dated 2006).

What was measured:
[1] = tested on: HeLa; experiment: Cytotoxicity, MTT to formazan test, adherent cells; format: cell-based; conditions: at 500 μM
Description: (§1) The toxicity of the compounds is evaluated by a test of biotransformation of MTT to formazan by cellular mitochondrial dehydrogenases.

[2] = tested on: CEM; experiment: Cytotoxicity, MTT to formazan test, cells in suspension; format: cell-based; conditions: at 500 μM
Description: as §1

## sodium 2-(2,3,4-dihydroxybenzylcarbamoyl)-8-hydroxyquinoline-7-carboxylate [BioA162]
[1]
  cytotoxicity (MTT): lacks cytotoxicity
[2]
  cytotoxicity (MTT): lacks cytotoxicity
